# Source: patent US8299070B2, “Indole compounds and pharmaceutical use thereof” (Japan Tobacco Inc., priority 2009, dated 2012)
# Chains of the proteins cited; added tags and fusions are not shown.
# UniProt Q08881, whole entry: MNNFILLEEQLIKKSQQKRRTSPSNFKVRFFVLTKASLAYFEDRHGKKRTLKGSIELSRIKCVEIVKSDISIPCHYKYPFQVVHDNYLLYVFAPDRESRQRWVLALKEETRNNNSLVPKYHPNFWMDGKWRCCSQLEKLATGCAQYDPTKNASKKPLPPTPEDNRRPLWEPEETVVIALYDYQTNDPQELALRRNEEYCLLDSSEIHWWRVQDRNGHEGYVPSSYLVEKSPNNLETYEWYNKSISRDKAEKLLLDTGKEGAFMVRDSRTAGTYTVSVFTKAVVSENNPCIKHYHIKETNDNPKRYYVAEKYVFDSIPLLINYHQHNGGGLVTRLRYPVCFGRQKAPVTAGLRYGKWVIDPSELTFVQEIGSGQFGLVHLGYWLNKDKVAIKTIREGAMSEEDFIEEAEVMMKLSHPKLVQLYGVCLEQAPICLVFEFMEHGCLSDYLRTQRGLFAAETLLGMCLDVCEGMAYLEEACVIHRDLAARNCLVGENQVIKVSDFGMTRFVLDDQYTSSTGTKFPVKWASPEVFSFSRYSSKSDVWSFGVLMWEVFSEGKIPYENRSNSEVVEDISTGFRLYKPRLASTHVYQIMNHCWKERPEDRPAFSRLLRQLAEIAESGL
# Target: hITK enzyme (FLAG-tagged full-length hITK) (Homo sapiens, UniProt Q08881)
# Test: ITK inhibitory activity (HTRF kinase assay, biotinylated GST-SLP76 substrate)
# Details: read-out: ITK IC50; IC50 calculated from the 2 test compound concentrations sandwiching 50% ITK inhibitory rate
row,Structure (SMILES),IC50
1,CN(C(=O)CC1CCCCO1)c1ccc2cc(-c3n[nH]c4c3CCC(C)(C)C4)[nH]c2c1 (stereo not drawn),4 nM
2,CCN(C(=O)CN1C(=O)COC[C@H]1C)c1ccc2cc(-c3n[nH]c4c3CCC(C)(C)C4)[nH]c2c1,1 nM
3,CN(C(=O)CC(C)(C)C)c1ccc2cc(-c3n[nH]c4c3CCC(C)(C)C4)[nH]c2c1,13 nM
